{"source": "patent US7671165B2", "about": "“Method of forming polycarbonate” (Sabic Innovative Plastics IP B.V., priority 2008, dated 2010)", "test": "Solubility of catalysts in MS and co-solvents", "settings": "2.47 wt %; 0.3 g; 10.0 ml MS, no co-solvent", "data": [{"smiles": "CC(=O)[O-].CCCC[N+](CCCC)(CCCC)CCCC", "note": "[Tetra Butyl Ammonium Acetate]", "values": [{"measurement": "Solubility of catalyst, T (room)", "value": "Dissolved"}]}]}
